US9156845B2, “4-(substituted amino)-7H-pyrrolo[2,3-d] pyrimidines as LRRK2 inhibitors” (Pfizer Inc., priority 2012, dated 2015)

The chains behind the UniProt entries cited, without tags or fusion partners. Residues count along the entry.
UniProt Q5S007, 970-2527: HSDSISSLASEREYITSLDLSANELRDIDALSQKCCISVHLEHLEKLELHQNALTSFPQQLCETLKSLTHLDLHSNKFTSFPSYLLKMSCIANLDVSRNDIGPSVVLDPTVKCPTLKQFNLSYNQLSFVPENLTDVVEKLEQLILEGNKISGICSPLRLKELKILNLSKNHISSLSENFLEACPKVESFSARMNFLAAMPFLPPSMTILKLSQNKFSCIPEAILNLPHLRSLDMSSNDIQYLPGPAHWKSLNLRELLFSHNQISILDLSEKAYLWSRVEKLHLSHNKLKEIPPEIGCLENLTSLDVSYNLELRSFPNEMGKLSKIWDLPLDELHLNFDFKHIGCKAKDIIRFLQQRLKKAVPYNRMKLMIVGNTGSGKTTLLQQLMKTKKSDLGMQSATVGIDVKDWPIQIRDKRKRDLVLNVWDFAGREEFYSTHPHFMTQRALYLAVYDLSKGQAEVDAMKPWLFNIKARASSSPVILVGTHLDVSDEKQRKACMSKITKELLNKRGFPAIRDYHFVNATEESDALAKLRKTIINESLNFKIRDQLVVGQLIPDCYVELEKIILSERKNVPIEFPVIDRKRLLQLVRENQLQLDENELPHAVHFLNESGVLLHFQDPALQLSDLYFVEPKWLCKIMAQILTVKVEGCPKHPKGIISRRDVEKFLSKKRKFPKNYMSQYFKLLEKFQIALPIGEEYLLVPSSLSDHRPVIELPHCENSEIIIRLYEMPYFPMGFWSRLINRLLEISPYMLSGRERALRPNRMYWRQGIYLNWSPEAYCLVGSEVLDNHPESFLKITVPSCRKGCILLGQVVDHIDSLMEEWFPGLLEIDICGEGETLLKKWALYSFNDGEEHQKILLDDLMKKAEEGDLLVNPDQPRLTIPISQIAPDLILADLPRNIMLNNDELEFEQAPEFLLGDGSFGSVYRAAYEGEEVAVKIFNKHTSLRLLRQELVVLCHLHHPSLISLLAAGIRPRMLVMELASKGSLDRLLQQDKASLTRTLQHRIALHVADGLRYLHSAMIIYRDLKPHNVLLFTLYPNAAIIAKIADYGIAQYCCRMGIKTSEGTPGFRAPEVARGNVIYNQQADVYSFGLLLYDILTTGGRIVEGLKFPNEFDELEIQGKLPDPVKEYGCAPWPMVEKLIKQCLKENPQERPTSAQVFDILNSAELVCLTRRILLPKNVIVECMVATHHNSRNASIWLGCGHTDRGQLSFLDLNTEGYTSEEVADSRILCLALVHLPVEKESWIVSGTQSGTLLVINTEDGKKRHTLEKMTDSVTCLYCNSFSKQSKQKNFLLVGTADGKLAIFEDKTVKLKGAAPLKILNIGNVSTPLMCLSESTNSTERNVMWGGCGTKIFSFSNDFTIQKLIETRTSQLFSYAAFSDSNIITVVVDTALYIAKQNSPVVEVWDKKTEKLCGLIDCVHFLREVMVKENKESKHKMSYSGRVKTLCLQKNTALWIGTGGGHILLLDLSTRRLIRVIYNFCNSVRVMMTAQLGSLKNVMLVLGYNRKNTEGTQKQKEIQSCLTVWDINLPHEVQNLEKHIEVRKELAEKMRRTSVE
UniProt Q5S007, 970-2527 G2019S: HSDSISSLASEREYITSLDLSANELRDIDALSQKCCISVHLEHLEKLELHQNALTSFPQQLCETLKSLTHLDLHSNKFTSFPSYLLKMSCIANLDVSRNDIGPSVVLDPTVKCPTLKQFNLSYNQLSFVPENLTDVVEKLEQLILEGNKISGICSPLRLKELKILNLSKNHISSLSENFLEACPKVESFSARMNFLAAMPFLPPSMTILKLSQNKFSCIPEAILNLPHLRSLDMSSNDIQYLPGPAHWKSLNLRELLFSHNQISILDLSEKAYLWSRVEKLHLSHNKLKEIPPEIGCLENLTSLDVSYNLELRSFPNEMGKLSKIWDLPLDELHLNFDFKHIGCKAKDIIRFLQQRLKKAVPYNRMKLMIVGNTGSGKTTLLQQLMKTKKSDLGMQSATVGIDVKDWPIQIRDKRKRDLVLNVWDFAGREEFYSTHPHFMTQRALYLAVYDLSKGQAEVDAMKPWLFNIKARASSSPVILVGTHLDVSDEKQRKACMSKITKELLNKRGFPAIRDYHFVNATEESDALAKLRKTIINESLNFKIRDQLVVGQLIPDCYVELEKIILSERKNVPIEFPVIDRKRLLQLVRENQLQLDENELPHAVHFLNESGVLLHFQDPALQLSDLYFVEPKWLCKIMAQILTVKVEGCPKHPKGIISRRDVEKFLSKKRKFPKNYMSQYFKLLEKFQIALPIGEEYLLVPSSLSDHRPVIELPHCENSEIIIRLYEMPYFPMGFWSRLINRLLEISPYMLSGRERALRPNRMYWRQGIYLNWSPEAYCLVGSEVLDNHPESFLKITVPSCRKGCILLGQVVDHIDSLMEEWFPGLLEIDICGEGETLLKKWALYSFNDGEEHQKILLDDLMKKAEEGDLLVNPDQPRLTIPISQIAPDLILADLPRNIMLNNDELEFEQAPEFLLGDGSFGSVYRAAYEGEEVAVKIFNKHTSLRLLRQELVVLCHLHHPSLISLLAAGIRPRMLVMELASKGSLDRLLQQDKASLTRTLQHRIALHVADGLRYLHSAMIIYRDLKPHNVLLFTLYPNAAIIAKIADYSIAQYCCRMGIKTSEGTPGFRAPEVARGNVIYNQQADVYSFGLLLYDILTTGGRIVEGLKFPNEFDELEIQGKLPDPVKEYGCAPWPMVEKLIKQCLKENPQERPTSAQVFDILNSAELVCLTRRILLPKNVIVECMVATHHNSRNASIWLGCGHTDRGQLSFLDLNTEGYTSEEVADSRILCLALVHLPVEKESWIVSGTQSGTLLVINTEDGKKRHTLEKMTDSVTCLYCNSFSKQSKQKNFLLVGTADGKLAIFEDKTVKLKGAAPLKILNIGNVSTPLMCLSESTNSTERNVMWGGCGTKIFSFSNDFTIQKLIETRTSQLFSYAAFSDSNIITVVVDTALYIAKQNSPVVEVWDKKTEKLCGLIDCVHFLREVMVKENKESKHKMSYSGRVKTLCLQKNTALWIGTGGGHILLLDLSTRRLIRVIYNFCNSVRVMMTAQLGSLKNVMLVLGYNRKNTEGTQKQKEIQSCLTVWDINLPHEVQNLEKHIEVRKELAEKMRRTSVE

Assays:
[1] = target: GST-tagged truncated LRRK2 (Homo sapiens (Human), UniProt Q5S007); test: LRRK2 Lantha Screen kinase assay; assay type: biochemical; conditions: geometric mean of 2-5 determinations unless otherwise indicated (a: >=6 determinations; b: single determination); read-out: LRRK2 WT IC50
Experimental: LRRK2 kinase activity was measured using Lantha Screen technology from Invitrogen. GST-tagged truncated LRRK2 from Invitrogen (Cat # PV4874) was incubated with a fluorescein-labeled peptide substrate based upon ezrin/radixin/moesin (ERM), also known as LRRKtide (Invitrogen cat #PR8976A), in the presence of a dose response of compound. Upon completion, the assay was stopped and detected with a terbium labeled anti-phospho-ERM antibody (Invitrogen, cat #PR8975A). […] The compound dose response was prepared by diluting compound to a top concentration of 3.16 mM in 100% DMSO and serial diluted by half-log in DMSO 11 times. Aliquots (3.5 μL) of the 100% DMSO dose response were mixed with 46.5 μL water then 1 μL of this mixture was added to the 3 μL substrate mix in the 384-well plate. The kinase reaction was started with 3 μL of a working solution of LRRK2 enzyme at a concentration of 4 μg/mL. The final reaction concentrations were 100 nM LRRKtide, 50 μM ATP, 1.7 μg/mL LRRK2 enzyme and a compound dose response with a top dose of 32 μM. […] After an incubation of 1 hour at room temperature, the plate was read on an Envision with an excitation wavelength of 340 nm and a reading emission at both 520 nm and 495 nm. […]

mutant G2019S LRRK2 = mutant G2019S LRRK2 (Homo sapiens (Human), UniProt Q5S007, G2019S); test: LRRK2 Lantha Screen kinase assay, mutant enzyme; assay type: biochemical; conditions: geometric mean of 2-5 determinations unless otherwise indicated (a: >=6 determinations; b: single determination)
Experimental: LRRK2 kinase activity was measured using Lantha Screen technology from Invitrogen. GST-tagged truncated LRRK2 from Invitrogen (Cat # PV4874) was incubated with a fluorescein-labeled peptide substrate based upon ezrin/radixin/moesin (ERM), also known as LRRKtide (Invitrogen cat #PR8976A), in the presence of a dose response of compound. Upon completion, the assay was stopped and detected with a terbium labeled anti-phospho-ERM antibody (Invitrogen, cat #PR8975A). […] The compound dose response was prepared by diluting compound to a top concentration of 3.16 mM in 100% DMSO and serial diluted by half-log in DMSO 11 times. Aliquots (3.5 μL) of the 100% DMSO dose response were mixed with 46.5 μL water then 1 μL of this mixture was added to the 3 μL substrate mix in the 384-well plate. The kinase reaction was started with 3 μL of a working solution of LRRK2 enzyme at a concentration of 4 μg/mL. The final reaction concentrations were 100 nM LRRKtide, 50 μM ATP, 1.7 μg/mL LRRK2 enzyme and a compound dose response with a top dose of 32 μM. The reaction was allowed to progress at room temperature for two hours and then stopped with the addition of 7 μL of detection buffer (20 mM Tris pH 7.6, 0.01% NP-40, 0.02% NaN3, 6 mM EDTA with 2 nM terbium labeled anti-phospho-ERM). After an incubation of 1 hour at room temperature, the plate was read on an Envision with an excitation wavelength of 340 nm and a reading emission at both 520 nm and 495 nm. The ratio of the 520 nm and 495 nm emission was used to analyze the data.
Inhibition of mutant G2019S LRRK2 (Invitrogen cat #PV4881) was measured in the exact same method. All final concentrations of substrate ATP and enzyme were the same.

| IC50 [1] [nM] | IC50 (mutant G2019S LRRK2) [nM] | SMILES |
| --- | --- | --- |
| 139 | 591 | N#Cc1cccc(-c2c[nH]c3ncnc(N4C[C@@H]5CCO[C@@H]5C4)c23)c1 (relative stereo) [Example 206, rel-3-{4-[(3aS,6aS)-hexahydro-5H-furo[2,3-c]pyrrol-5-yl]-7H-pyrrolo[2,3-d]pyrimidin-5-yl}benzonitrile] |
|  | 73 | Cc1nc(C2CN(c3ncnc4[nH]cc(-c5cccc(C#N)c5)c34)CCO2)no1 (single isomer, unassigned) [Example 195] |
| 10 | 41 | Cc1nc(C2CN(c3ncnc4[nH]cc(-c5cccc(C#N)c5)c34)CCO2)no1 (centres unmarked) [Example 112, 3-{4-[2-(5-methyl-1,2,4-oxadiazol-3-yl)morpholin-4-yl]-7H-pyrrolo[2,3-d]pyrimidin-5-yl}benzonitrile] |
